Assay results reported in US8466164B2.

Sequences of proteins named here, by UniProt entry; tags and fusion partners are left off.
UniProt P12931, whole entry: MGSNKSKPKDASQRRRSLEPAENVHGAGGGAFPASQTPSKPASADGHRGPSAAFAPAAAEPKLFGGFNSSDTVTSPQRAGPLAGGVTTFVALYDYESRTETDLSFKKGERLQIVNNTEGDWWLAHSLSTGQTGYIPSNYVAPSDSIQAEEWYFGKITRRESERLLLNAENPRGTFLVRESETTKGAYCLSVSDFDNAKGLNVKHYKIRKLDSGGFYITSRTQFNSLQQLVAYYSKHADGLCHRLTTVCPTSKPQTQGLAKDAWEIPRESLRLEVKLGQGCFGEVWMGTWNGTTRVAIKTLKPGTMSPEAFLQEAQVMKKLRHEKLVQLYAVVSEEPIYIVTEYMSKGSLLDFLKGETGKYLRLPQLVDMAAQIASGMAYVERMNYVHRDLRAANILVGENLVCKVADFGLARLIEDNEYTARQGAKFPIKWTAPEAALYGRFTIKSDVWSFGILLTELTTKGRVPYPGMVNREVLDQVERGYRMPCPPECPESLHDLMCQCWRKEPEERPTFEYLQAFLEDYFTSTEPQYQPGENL

Tests used:
recombinant human Src = recombinant human Src (Homo sapiens, UniProt P12931); test: cell-free Src enzymatic assay; assay type: biochemical; details: read-out: Ki toward recombinant human Src; calculated from ID50; triplicate, mean values
SaOS-2 cells = test: MTT cell viability assay on SaOS-2; details: SaOS-2, MTT, 48 h treatment, 25 μM, control = 100%; mean ± SD

| SMILES | Ki (recombinant human Src) | CV (%) after 48 h (cellular viability with respect to control) (SaOS-2 cells) |
| --- | --- | --- |
| ClC(Cn1ncc2c(NCc3ccccc3)nc(SC3CCCC3)nc21)c1ccccc1 (stereo not drawn) | 1.2 µM |  |
| CCCCNc1nc(SC)nc2c1cnn2CC(Cl)c1ccc(F)cc1 (stereo not drawn) |  | 59.1 ± 1.9% |
| CCCCNc1nc(SC)nc2c1cnn2CC(Cl)c1ccc(Cl)cc1 (stereo not drawn) |  | 93.6 ± 3.1% |
